Molecules are shown by their SMILES.

Here are results for one compound from patent US6391505B1, “Phthalocyanine crystal and its production, and electrophotosensitive material using the same” (Kyocera Mita Corporation, priority 1999, dated 2002).

Data set [1] can be described thus: Reduction potential of organic acceptor compound by cyclic voltammetry. In kind it is physicochemical. Conditions: for Redox potential: organic acceptor.
Data set [2] can be described thus: Solubility of organic acceptor compound in tetrahydrofuran (solvent of coating solution). In kind it is physicochemical. The conditions noted are these: for Solubility/THF [% by weight]: organic acceptor.

With `N#CN=C1c2cc([N+](=O)[O-])cc([N+](=O)[O-])c2-c2c1cc([N+](=O)[O-])cc2[N+](=O)[O-]`, the Redox potential in data set [1] (Table 4) and in data set [1] (Table 6) was −0.37 throughout. Besides, in data set [1] (to reference electrode (Ag+/Ag), cyclic voltammetry in dichloromethane), the “Reduction Potential” value is recorded as −0.37 V. For the same compound, the Solubility in data set [2] (THF) was 3 % by weight. The “Solubility/THF [% by weight]” value in data set [2] (Table 4) and in data set [2] (Table 6) was 3 % by weight throughout.
